Apparent affinities of Ab-14 variants for a coronavirus HR2 peptide

Data: MIT Lincoln Laboratory AlphaSeq set, Li et al. 2023, doi:10.1038/s41467-023-39022-2, as distributed in FLAb.

Target peptide (SARS-CoV-2 spike, HR2 region): PDVDLGDISGINAS

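Phage display of a naive human antibody library on the peptide gave the parent. This is the validation round: designs drawn from the data on random variants, tested in the same kind of assay. Several design methods are mixed in this list. The scFvs were displayed on barcoded MATa yeast, the peptide on MATalpha yeast. After mating in shaken culture at 30 °C for 16 h, diploids were selected and their barcode pairs sequenced. Scores were corrected for input abundance and mapped to Kd with protein pairs of known affinity run in the same pool. The assay was run in six technical replicates.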

Each scFv is VH, the linker GGGGSGGGGSGGGGS, VL, as in the parent Ab-14, and differs from it in the CDRs of the heavy chain only.
VH: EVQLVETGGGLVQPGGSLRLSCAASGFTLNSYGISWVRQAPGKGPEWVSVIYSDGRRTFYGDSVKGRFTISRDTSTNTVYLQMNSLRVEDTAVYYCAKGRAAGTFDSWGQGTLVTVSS
VL: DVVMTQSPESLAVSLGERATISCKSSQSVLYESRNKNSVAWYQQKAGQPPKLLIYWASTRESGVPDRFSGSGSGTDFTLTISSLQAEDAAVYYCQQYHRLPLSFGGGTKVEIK

Variants are written as CDR1, CDR2 and CDR3 of the heavy chain (limits as in the source). Parent: GFTLNSYGIS, VIYSDGRRTFYGDSVK, GRAAGTFDS. Scale: log10 of Kd in nM, estimated from mating counts; low values are strong binders. A mean of the replicates is given; it leaves out those without a signal. "ND" marks a missing value. The strain was present, yet no cells mated with the target were sequenced in that replicate, which points to weak or no binding. Entries are sorted by rising average, undetected variants last. Values of this round are not directly comparable with the first-round values of the same sequences.

CDR-H1	CDR-H2	CDR-H3	log10 Kd (nM) by replicate	mean log10 Kd (nM)	signal with controls
GFDLNEYGIS	VIYADGKRTVYSDSVK	GNVAGTFDV	-0.77 -0.72 -0.79 -0.88 -1.02 -0.61	-0.80	0 of 18
GFDLDEYGIS	VIYADGMRTAYSDSVK	GQNAGTFDT	-0.73 -0.77 -0.83 -0.99 -0.27 -0.32	-0.65	0 of 18
GFDLNEYGIS	VIYADGVRTFYADSVK	GEIAGTFDQ	-0.69 -0.22 -0.38 -0.90 -0.56 -0.42	-0.53	0 of 18
GFEIQDYGIS	VIYADGLRTAYSDKFK	GIIAGTFNS	-0.24 -0.50 -0.38 -0.43 -0.58 -0.36	-0.42	0 of 18
GFDLNEYGIS	VIYADGRRTAYVDSVK	GNEAGTFDV	-1.09 0.33 -0.23 -0.72 -0.58 -0.10	-0.40	0 of 18
GFDLNEYGIS	VIYADGVRTAYADSVK	GENAGTFDQ	-0.49 -0.37 -0.16 -0.24 -0.62 -0.16	-0.34	0 of 18
GFDLNEYGIS	VIYADGLRTSYADSVK	GQNAGTFDL	0.21 -0.29 -0.46 -0.76 -0.30 0.06	-0.26	0 of 18
GFDLNEYGIS	VIYADGMRTAYSDSVK	GEAAGTFDL	-0.15 -0.02 -0.11 -0.15 -0.34 -0.12	-0.15	0 of 18
GFTLNDYGIS	VIYSDGKRTFYIDSVK	GEAAGTFDS	0.69 -0.46 -0.55 -0.41 0.06 -0.10	-0.13	0 of 18
GFDLGEYGIS	VIYADGHRTAYVTKVK	GTIGGMFFL	-0.01 -0.05 -0.11 0.33 0.34 0.24	0.12	0 of 18
GFELNSYGIS	VIYSDGRRTFYVDSVK	GSTAGTFDA	0.56 0.37 0.15 0.03 -0.01 0.33	0.24	1 of 18 (1.89)
GFDLNEYGIS	VIYADGRRTFYSDSVK	GGNGGTFDM	0.93 0.49 0.19 0.52 0.34 0.08	0.43	0 of 18
GFSLNEYGIS	VIYSDGRRTFYGDQVK	GRAAGTFDK	0.65 0.34 0.33 0.19 0.32 0.87	0.45	1 of 18 (2.00)
GFELNSYGIS	VIYSDGRRTFYSDSVK	GHAAGTFDS	1.63 0.81 0.85 0.34 0.26 0.83	0.79	0 of 18
GFTLNDYGYS	VIYADGRRTFYSDSVK	GRVAGTFDD	0.92 1.05 0.52 0.47 0.76 1.40	0.85	0 of 18
SFTLNSYGIS	VIYSDGRRTFYSDSVK	GEAAGTFDS	ND 0.99 ND ND ND ND	0.99	0 of 18
GFDLNSYGIS	VIYSDGRRTFYLDSVK	GRLAGTFDS	0.87 0.67 0.71 2.15 0.72 0.91	1.00	0 of 18
HFTLNDYGIS	VIYSDGRRTAYIDSVK	GRAAGTFDS	0.52 0.74 0.94 0.93 2.28 0.86	1.05	0 of 18
GETLNDYGIS	VIYSDGRRTFYGDSVK	GWIAGTFDT	ND ND ND 1.77 0.52 0.99	1.09	0 of 18
GFSLNSYGIS	VIYSDGRRTFYQDSVK	GRQAGTFDS	ND ND 1.23 0.63 1.54 0.99	1.10	0 of 18
KFTLNSYGIS	VIYSDGRRTFYGDSVK	GKVAGTFDT	ND ND ND ND 1.56 0.71	1.14	1 of 18 (1.58)
GFDLNSYGIS	VIYSDGRRTFYQDSVK	GREAGTFDT	1.42 1.41 ND ND ND 1.68	1.50	0 of 18
GFDLNEYGVS	VIYADGFRTAYTDSVK	GNIFDAIMA	1.68 ND ND ND ND ND	1.68	0 of 18
GYDMEDYGIS	VIYADGSRAAYVDNFK	GELAGTFDM	ND ND 1.84 ND ND ND	1.84	1 of 18 (1.10)
GEELEEYGIS	VIYADGRKQSYSDSVK	GAIAGNFDA	ND ND ND 1.86 ND ND	1.86	0 of 18
GFSLNSYGIS	VIYSDGRRTFYIDSVK	GQAAGTFDK	2.00 1.92 1.35 2.52 2.78 2.39	2.16	0 of 18
GFHLNSYGIS	VIYSDGRRTFYVDSVK	GKLAGTFDT	ND 2.05 ND 2.03 ND 2.76	2.28	0 of 18
GFTLDSYGTS	VIYSDGRRTFYGDSVK	GRAAGTALS	ND ND ND 2.60 ND ND	2.60	0 of 18
GKSLNSYGIS	VIYSDGRRTFYADHVK	GRTAGTFDS	ND ND ND ND 2.66 ND	2.66	0 of 18
GFTLNEYGIS	VIYSDGRRTFYGDSVK	GRGAVTFDQ	ND ND ND ND 3.85 ND	3.85	0 of 18
GVTLNSYGIS	VIYSDGMRTFYGDSYK	GRAAGTFDS	ND ND ND ND ND ND	ND	0 of 18
GFTLNDYGIS	VIYSDGSRTSYGDSVK	GRAVLTFIS	ND ND ND ND ND ND	ND	0 of 18
GFTLESYGIS	VIYSDGRRTFYDDSVK	GWGAGTFDS	ND ND ND ND ND ND	ND	0 of 18
GFDLNEYGIS	VIYADGRRTAYSDSVK	GEVAGFFDF	ND ND ND ND ND ND	ND	1 of 18 (1.62)
GFTLNSYGIS	VIYSDGRRQFYGDSVK	GRAAGTFDR	ND ND ND ND ND ND	ND	0 of 18
GFQLNEYGIS	VIYADGKRSEYADKVK	GGINSSFSV	ND ND ND ND ND ND	ND	0 of 18
GFDLEDYGIS	VIYADGKRTFYADSVK	GEIAGTFDL	ND ND ND ND ND ND	ND	0 of 18
GFEIDEYGIS	VIYADGRRRAYADDVK	GNDIGGFDL	ND ND ND ND ND ND	ND	0 of 18
GFSLNSYGIS	VIYSDGMRTFYGDSVD	LRAAGLFDS	ND ND ND ND ND ND	ND	0 of 18
YFSLNEYGIS	VIYSDGRRTFYGDSVK	GRTAGTFDK	ND ND ND ND ND ND	ND	0 of 18
GQDLNEYGIS	VIYADGRRTMYANDVK	GHQGGIFED	ND ND ND ND ND ND	ND	0 of 18
GFTLNSYGIS	VIYADDRRTFYGDDVK	GRAAGTNKS	ND ND ND ND ND ND	ND	0 of 18
GFTLNDYGIS	VIYSDGRRTFYGDSVR	GRAAGTFFS	ND ND ND ND ND ND	ND	0 of 18
GFDLNEYGVS	VIYADGMRSSYQDKVK	GSNVSLFDV	ND ND ND ND ND ND	ND	1 of 18 (2.28)
GFDLNSYGIS	VIYSDGRRTFYGDSVK	GRAAGYFWS	ND ND ND ND ND ND	ND	0 of 18
GFTLNDYGIS	VIYSDGRRTFYDDSVK	GRAAGTFFS	ND ND ND ND ND ND	ND	0 of 18
GFTLNSYGIS	VIYSDGRKTFYGDNVK	WRAAGTFDS	ND ND ND ND ND ND	ND	0 of 18
GFNLDEYGIS	VIYADGKRCQYANTVK	GELAGFFML	ND ND ND ND ND ND	ND	0 of 18
GFTLNQYGIS	VIYSHGRRTRYSGSVK	SRAAGFFDS	ND ND ND ND ND ND	ND	0 of 18
GFTLYSYGIS	VIYSDGRRTFYGDSVK	GQLAGTFDS	ND ND ND ND ND ND	ND	0 of 18
GFTLDSYGIS	VIYSDGRRTFYGDSVK	GRAAGYALS	ND ND ND ND ND ND	ND	0 of 18
GQDLNEYGIS	VIYADGFRTAYADTVK	GTIGFMLDS	ND ND ND ND ND ND	ND	1 of 18 (1.42)

Again, the first 3 entries without any signal:

CDR-H1	CDR-H2	CDR-H3	log10 Kd (nM) by replicate	mean log10 Kd (nM)	signal with controls
GVTLNSYGIS	VIYSDGMRTFYGDSYK	GRAAGTFDS	ND ND ND ND ND ND	ND	0 of 18
GFTLNDYGIS	VIYSDGSRTSYGDSVK	GRAVLTFIS	ND ND ND ND ND ND	ND	0 of 18
GFTLESYGIS	VIYSDGRRTFYDDSVK	GWGAGTFDS	ND ND ND ND ND ND	ND	0 of 18

Background: pairings of all heavy chain designs with three empty control strains gave a value in 1% of cases (median 2.08, 5th percentile 0.84). Values in that range, when seen in few replicates, are hard to tell from nonspecific mating. Also given: how often the same scFv was detected with the empty control strains, with their mean in brackets. Of ten entries with the parent sequence, four were seen in most replicates (averages 0.34 to 2.37), three in one and three in none, so single entries are noisy. In the paper, a design with two or fewer of six values counts as a poor binder.